# Data published in patent US20070134231A1, “Method for prolonging activity of autodegradable enzymes and compositions thereof” (priority 2005, published 2007).
# Sequences of proteins named here, by UniProt entry; tags and fusion partners are left off. Residues count along the entry.
# UniProt P00747, 97-580 limits assumed: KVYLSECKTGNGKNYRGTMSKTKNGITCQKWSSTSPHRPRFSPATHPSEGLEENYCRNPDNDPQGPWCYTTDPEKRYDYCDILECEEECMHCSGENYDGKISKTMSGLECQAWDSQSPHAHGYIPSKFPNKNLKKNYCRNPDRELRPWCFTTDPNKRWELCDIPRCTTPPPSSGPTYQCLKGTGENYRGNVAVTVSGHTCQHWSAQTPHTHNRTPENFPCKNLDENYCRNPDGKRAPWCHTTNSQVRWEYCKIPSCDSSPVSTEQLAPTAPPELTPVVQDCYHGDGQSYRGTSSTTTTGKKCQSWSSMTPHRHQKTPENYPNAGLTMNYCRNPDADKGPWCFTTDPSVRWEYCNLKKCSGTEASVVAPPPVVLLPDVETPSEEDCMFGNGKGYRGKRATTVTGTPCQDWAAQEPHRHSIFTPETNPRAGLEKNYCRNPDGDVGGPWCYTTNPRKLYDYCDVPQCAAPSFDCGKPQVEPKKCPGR
# UniProt P00747, 581-810 limits assumed: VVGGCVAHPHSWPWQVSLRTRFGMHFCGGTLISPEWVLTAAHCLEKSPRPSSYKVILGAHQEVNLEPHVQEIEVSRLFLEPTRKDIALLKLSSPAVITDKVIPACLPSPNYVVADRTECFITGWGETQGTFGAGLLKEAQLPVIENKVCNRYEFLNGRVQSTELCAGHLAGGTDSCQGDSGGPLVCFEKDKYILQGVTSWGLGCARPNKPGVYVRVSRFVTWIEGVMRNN
# Target: T1, human plasmin (Homo sapiens, UniProt P00747)
# T1 construct: which cleave a single-chain plasminogen molecule at the Arg^560 -Val^561 peptide bond, producing active plasmin; purchased Talecris, Inc. (Research Triangle Park, North Carolina)
# Assay: Plasmin precipitation study in buffer solutions (PBS, pH of about 7.4)
# Assay type: physicochemical
# Conditions: plasmin 1 mg/ml, observed within 2 hours
# Method: This acidified, lyophilized plasmin was reconstituted with 0.9% (by weight) NaCl solution to a concentration of 10 mg/ml. […] Combinations of ε-aminocaproic acid and gelatin or glycerin were also tested. The concentration of plasmin in the additive-containing buffer was 1 mg/ml.
substance,measurement,value
HSA: human serum albumin,Concentration Range Tested That Did Not Prevent Precipitation at pH of About 7.4,5% (w/v)
